## scFv variants of Ab-91 (heavy chain) against a SARS-CoV-2 spike peptide

Values reported by Engelhart et al. 2022, doi:10.1038/s41597-022-01779-4 (FLAb copy).

Target peptide (SARS-CoV-2 spike, HR2 region): PDVDLGDISGINAS

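Phage display of a naive human antibody library on the peptide gave the parent. Library AAYL51 holds single substitutions and randomly drawn double and triple substitutions in the CDRs. AlphaSeq pools MATa yeast showing the antibodies with MATalpha yeast showing the peptide. After mating in shaken culture at 30 °C for 16 h, diploids were selected and their barcode pairs sequenced. A regression on co-assayed BCL2-family reference pairs converts the normalised counts of each replicate to an apparent Kd. Mating was done three times.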

Each scFv is VL, the linker GGGGSGGGGSGGGGS, VH, as in the parent Ab-91, and differs from it in the CDRs of the heavy chain only.
VL: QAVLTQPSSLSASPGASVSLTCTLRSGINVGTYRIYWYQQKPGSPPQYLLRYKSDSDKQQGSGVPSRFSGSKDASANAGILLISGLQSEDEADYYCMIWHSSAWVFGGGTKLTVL
VH: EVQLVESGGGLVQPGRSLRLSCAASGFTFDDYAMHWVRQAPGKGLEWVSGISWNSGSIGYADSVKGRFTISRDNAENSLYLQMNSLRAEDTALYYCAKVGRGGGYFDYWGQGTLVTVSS

Each variant is given by its three heavy chain CDRs, as the data file delimits them; those of the parent are GFTFDDYAMH, GISWNSGSIGYADSVK, VGRGGGYFDY.
Every variant below is changed at S63 of the VH (sequential numbering).
Kd is apparent (estimated from mating counts) and averaged on the log scale over replicates with a signal. Smaller is tighter.
Where no diploid with the target was found in any replicate, the entry reads "not detected": below detection, most likely a poor binder, though not proof of it.
Nonspecific signal, from three strains lacking the peptide, appeared in 21% of pairings of library AAYL51, centred on 34 µM (5% of these signals below 1.8 µM); values are not corrected for it. Also given: how often the same scFv was detected with the empty control strains.

CDR-H1,CDR-H2,CDR-H3,Kd (apparent),seen in,empty controls
GFTFDDYAMH,GISWNMGSTGYADQVK,VGRGGGYFDY,34 nM,3 of 3,1 of 9
GFTFDDYAMH,GISWNSGSIGYADNVK,VGRGAHYFDY,7.5 nM,3 of 3,3 of 9
GFTFDDYAMH,GISWNSGSIGYADQWK,GGRGGGYFDY,48 µM,2 of 3,2 of 9
GFTFDDYAMH,GISWNSGSIGYADYVK,VGRIRGYFDY,34 µM,1 of 3,4 of 9
GFTFDDYAMH,GISWNSGNIGYADGVK,VGRGGGYFYY,950 nM,3 of 3,1 of 9
GFTFDDYGMH,GISWNSHSIGYADNVK,VGRGGGYFDY,1.5 nM,3 of 3,1 of 9
GFTFDDRAMH,GIQWNSGSIGYADVVK,VGRGGGYFDY,86 µM,1 of 3,0 of 9
GFTFDDYAMH,GISWNSGSIGKADASK,VGRGGGYFDY,260 µM,2 of 3,2 of 9
GFTFDDPAMH,GISWNSGSIGHADKVK,VGRGGGYFDY,4.8 µM,1 of 3,0 of 9
GFTFDDYAMH,GISWNGGSIGYADFVK,VGRPGGYFDY,not detected,0 of 3,0 of 9
GFTFDDYAMH,GISWNKGSMGYADCVK,VGRGGGYFDY,3.0 µM,2 of 3,0 of 9
GFTFDDYAMH,GISWSSRSIGYADQVK,VGRGGGYFDY,7.4 µM,2 of 3,2 of 9
GFTFDDYAMH,GISRNSGSIGYADDVK,VGRGGGYFDA,13 nM,3 of 3,4 of 9
GFTFDGYAMH,GISWNSGSIGYADRVK,VGRGEGYFDY,not detected,0 of 3,1 of 9
GFTFDDYAMH,GISWNSGSIGYADVMK,VGPGGGYFDY,4.9 µM,3 of 3,2 of 9
GFTFDDYAMH,GISQNSGSIGYADEVK,VGRGGGYFHY,360 nM,3 of 3,3 of 9
GFTFDDYALH,GISWNSGSIGYADFVK,VTRGGGYFDY,170 µM,3 of 3,1 of 9
GFTKDDYAMH,GISWNVGSIGYADTVK,VGRGGGYFDY,78 µM,2 of 3,5 of 9
GFTFDDYAMH,GISWNSGSIGYDDKVK,VIRGGGYFDY,not detected,0 of 3,2 of 9
GFTFDDYAMH,GISWNSGSIGYADHVW,VGRGGGYRDY,14 µM,2 of 3,6 of 9
GFTFDDYAMH,GISWNTSSIGYADGVK,VGRGGGYFDY,not detected,0 of 3,1 of 9
GFTFDDYAMH,GISWNSGSIGYACRVK,VGRGGGYFDY,63 µM,2 of 3,0 of 9
GFLFDDYAMH,GISWNSVSIGYADGVK,VGRGGGYFDY,39 µM,1 of 3,4 of 9
DFTFDDYAMH,GISWNSGSAGYADEVK,VGRGGGYFDY,1.4 mM,3 of 3,7 of 9
GFTFDKYAMH,GISWNSGSIGYADKVK,VGRGPGYFDY,1.5 mM,2 of 3,3 of 9
WFTFDDYAMH,GISWNSGSIGYADCVK,VGRGGGYFDY,not detected,0 of 3,0 of 9
TFTFDDYAMH,GISWNSGSIGYADLVK,VGHGGGYFDY,not detected,0 of 3,4 of 9
GFTFDDYAMH,GISWNSGTIGYADFVK,VGRGGGYFDY,53 µM,2 of 3,1 of 9
GFTFYDYAMH,GISWNSLSIGYADDVK,VGRGGGYFDY,180 nM,3 of 3,2 of 9
GCTFDDYAMH,GGSWNSGSIGYADWVK,VGRGGGYFDY,300 µM,2 of 3,4 of 9
GFTFDDYAMH,GGSWNIGSIGYADKVK,VGRGGGYFDY,430 µM,2 of 3,7 of 9
GFTFDPYAKH,GISWNSGSIGYADWVK,VGRGGGYFDY,not detected,0 of 3,0 of 9
GFTFDDYAMH,GISPNSGSIGYADEVK,VGRGGRYFDY,81 µM,3 of 3,3 of 9
GFTFDDYAMH,GISWNSGLIGYADQVK,VGRFGGYFDY,47 µM,1 of 3,2 of 9
GFTFDDYAMH,GISWNVGSIGYPDNVK,VGRGGGYFDY,5.1 µM,1 of 3,0 of 9
GFTFDDTAMH,GISWNSGSIGYADDVK,VGRGGGWFDY,not detected,0 of 3,0 of 9
GFTFDDYAMH,GISWNSNSIGIADIVK,VGRGGGYFDY,69 µM,2 of 3,0 of 9
GFTFDDYAMH,RISWNSGSQGYADEVK,VGRGGGYFDY,120 µM,2 of 3,3 of 9
GFTFDDYAMH,GGSWNSGSIGFADTVK,VGRGGGYFDY,15 µM,1 of 3,3 of 9
GFTFDDYAMH,GISWNSGSIGYAINVK,VGRVGGYFDY,190 µM,2 of 3,3 of 9
GFTFDDYAMH,GISYNSGSIGYADRVS,VGRGGGYFDY,250 nM,3 of 3,0 of 9
GFFFDDYAMH,GISWNSGSIGYADVVK,VGRGGGYFDY,not detected,0 of 3,3 of 9
GFTFDDMAMH,GISWNSGSIGYADCVK,VGRGGGYFDY,910 nM,3 of 3,2 of 9
GITFDDYAFH,GISWNSGSIGYADYVK,VGRGGGYFDY,180 nM,3 of 3,0 of 9
GFTFDDYAMA,GISWNSGSIGYADYFK,VGRGGGYFDY,3.0 µM,1 of 3,0 of 9
GPTFDTYAMH,GISWNSGSIGYADHVK,VGRGGGYFDY,not detected,0 of 3,0 of 9
GFTFDDYAPH,GISWNSGSIGYADEVK,VGRGDGYFDY,110 µM,1 of 3,1 of 9
GGTFDDYAMH,GISWESGSIGYADYVK,VGRGGGYFDY,not detected,0 of 3,0 of 9
GFTFDDYAMH,GISWNSGSIGYADWVV,VGRGGGYFDY,410 nM,3 of 3,2 of 9
GFTFDDYAMN,GISWNSMSIGYADQVK,VGRGGGYFDY,not detected,0 of 3,0 of 9
GFTFDDYAMH,GISWNSGSIGYADWAK,VGRGGGYFCY,51 µM,1 of 3,1 of 9
GFTFDDYAMH,GISWNSGSIGYADKVK,VITGGGYFDY,24 nM,3 of 3,3 of 9
GFTFCDYAMH,GISWNSGSIGYADYVT,VGRGGGYFDY,2.2 µM,3 of 3,3 of 9
GFTFDDYAMH,GISWNLGSIGYADWVK,VGRGGGYTDY,82 µM,1 of 3,2 of 9
GFTTDDLAMH,GISWNSGSIGYADEVK,VGRGGGYFDY,not detected,0 of 3,0 of 9
GFTFDDYAMH,GIWWNSGSIGYADDVK,VGRGGGYFDY,not detected,0 of 3,0 of 9
GFWFDDYAMH,GISWNSGSIGYADVVK,VGRRGGYFDY,2.6 µM,1 of 3,0 of 9
GFTFIDYAMH,GISWNSGSIGYAGQVK,VGRGGGYFDY,8.1 µM,1 of 3,1 of 9
GFTFDDYAMH,GISWNSGSIKYADNVK,VGRGGGYFDY,100 µM,1 of 3,2 of 9
GFTFDDYAMH,GISWNSGSIGYADLVK,VGRGGGYFDY,37 µM,2 of 3,0 of 9
GFTFDDYAMH,GVSWNSGSIGYADKVK,VGRGGTYFDY,3.6 µM,2 of 3,2 of 9
GFTFDDYAMY,GISWNSGSIGYADQVK,VGRGGGYFDN,2.8 nM,3 of 3,9 of 9
GITFDDYAMH,GISWNSGSIGYADCVL,VGRGGGYFDY,6.7 µM,1 of 3,0 of 9
GFTFDDYAMH,GISWNSGSIGYADVAK,VGRIGGYFDY,1.1 µM,3 of 3,4 of 9

The closing 5 entries, repeated:

| CDR-H1 | CDR-H2 | CDR-H3 | Kd (apparent) | seen in | empty controls |
|---|---|---|---|---|---|
| GFTFDDYAMH | GISWNSGSIGYADLVK | VGRGGGYFDY | 37 µM | 2 of 3 | 0 of 9 |
| GFTFDDYAMH | GVSWNSGSIGYADKVK | VGRGGTYFDY | 3.6 µM | 2 of 3 | 2 of 9 |
| GFTFDDYAMY | GISWNSGSIGYADQVK | VGRGGGYFDN | 2.8 nM | 3 of 3 | 9 of 9 |
| GITFDDYAMH | GISWNSGSIGYADCVL | VGRGGGYFDY | 6.7 µM | 1 of 3 | 0 of 9 |
| GFTFDDYAMH | GISWNSGSIGYADVAK | VGRIGGYFDY | 1.1 µM | 3 of 3 | 4 of 9 |